Measurements taken from US8394950B2, “Analogues of coformycin and their use for treating protozoan parasite infections” (Industrial Research Limited, priority 2006, dated 2013).
Like-named read-outs stand apart in the source and are kept apart here.

Experiments:
Type in all cases: biochemical
BtADA = target: T1, BtADA (Bos taurus, UniProt P56658); assay: Inhibition of bovine adenosine deaminase (adenosine to inosine, absorbance change)
T1 construct: bovine adenosine deaminase from bovine spleen; purchased Sigma-Aldrich Chemical Company; host or cells: bovine spleen
T1 sequence (P56658 1-363): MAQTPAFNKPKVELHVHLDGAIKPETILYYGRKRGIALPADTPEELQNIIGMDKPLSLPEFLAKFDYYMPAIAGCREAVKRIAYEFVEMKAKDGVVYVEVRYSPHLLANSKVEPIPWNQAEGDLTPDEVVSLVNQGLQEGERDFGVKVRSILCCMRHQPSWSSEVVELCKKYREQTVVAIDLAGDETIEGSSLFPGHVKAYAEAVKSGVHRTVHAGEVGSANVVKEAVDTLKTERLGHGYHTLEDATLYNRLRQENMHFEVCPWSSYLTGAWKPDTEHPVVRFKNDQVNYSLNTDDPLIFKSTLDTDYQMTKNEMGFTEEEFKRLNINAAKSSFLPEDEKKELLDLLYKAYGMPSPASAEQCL

HsADA = target: T2, HsADA (Homo sapiens, UniProt P00813); assay: Inhibition of human adenosine deaminase (adenosine to inosine, absorbance change)
T2 construct: Human adenosine deaminase from human erythrocytes; purchased Sigma-Aldrich Chemical Company; host or cells: human erythrocytes
T2 sequence (P00813 1-363): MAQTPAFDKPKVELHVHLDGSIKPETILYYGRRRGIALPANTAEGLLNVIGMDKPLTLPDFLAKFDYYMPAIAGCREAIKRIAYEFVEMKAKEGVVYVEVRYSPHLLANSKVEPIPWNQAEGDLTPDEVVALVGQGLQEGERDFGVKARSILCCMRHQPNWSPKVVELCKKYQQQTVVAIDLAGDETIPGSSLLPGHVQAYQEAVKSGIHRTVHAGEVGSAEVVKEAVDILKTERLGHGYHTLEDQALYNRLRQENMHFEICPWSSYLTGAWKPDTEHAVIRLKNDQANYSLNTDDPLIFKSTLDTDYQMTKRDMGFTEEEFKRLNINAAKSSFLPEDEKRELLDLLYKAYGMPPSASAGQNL

PfADA = target: T3, PfADA (Plasmodium falciparum, UniProt Q8IJA9)
T3 sequence (Q8IJA9 1-367): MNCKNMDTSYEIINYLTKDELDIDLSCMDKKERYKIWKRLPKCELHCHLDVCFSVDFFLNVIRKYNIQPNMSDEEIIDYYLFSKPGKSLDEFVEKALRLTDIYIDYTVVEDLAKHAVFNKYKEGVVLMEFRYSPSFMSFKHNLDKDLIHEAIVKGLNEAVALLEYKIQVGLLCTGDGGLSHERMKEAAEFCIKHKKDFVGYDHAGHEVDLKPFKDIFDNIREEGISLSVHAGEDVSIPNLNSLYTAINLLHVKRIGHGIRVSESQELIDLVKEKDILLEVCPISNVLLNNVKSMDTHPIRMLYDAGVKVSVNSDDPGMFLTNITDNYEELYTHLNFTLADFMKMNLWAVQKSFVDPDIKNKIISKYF

[1] = initial dissociation constant, 100 μM adenosine, pH 7.0, 30° C., >10,000 = no inhibition at 10 μM

Ki (BtADA; [1]): > 10000 nM
inhibition of bovine ADA (in words) (BtADA; mammalian ADAs): little effect on mammalian ADAs
Ki (HsADA; [1]): > 10000 nM
inhibition of human ADA (in words) (HsADA; mammalian ADAs): little effect on mammalian ADAs
specificity for PfADA relative to HsADA (PfADA; PfADA relative to HsADA): > 20,000 fold
Ki (PfADA; initial dissociation constant, 100 μM adenosine, pH 7.0, 30° C., read-out: PfADA Ki): 2.66 ± 0.13 nM
inhibition of PfADA (in words) (PfADA; listed as 5′-methylthiocoformycin): pM inhibitor of PfADA
Ki (PfADA; slow onset equilibrium dissociation constant, read-out: PfADA Ki^a): 0.43 ± 0.12 nM
Substance: (8R)-8-hydroxy-3-(5-methylthio-β-D-ribofuranosyl)-3,6,7,8-tetrahydroimidazo[4,5-d][1,3]diazepine [5′-MeS-Coformycin (8)]
inhibition of PfADA (in words) (PfADA; listed as 5′-Methylthiocoformycin): potent, slow onset, tight binding inhibitor of PfADA
